uPA surface inh: cell surface uPA generation inhibition | Potency, µM (titrated, usually from 38.3 µM), usual class: inhibitors | cell surface uPA generation assay, qHTS | actives 0.31% (n = 330,000) | AID 540303; active means well fitted inhibition curve with a large enough effect; inconclusive means small, poorly fitted or top-dose-only effect; inactive means no such curve, though single readings can be large or run the other way; tested in mouse RAW 264.7 cells; further: nearly all actives have a fitted effect of over 55% in size
TDP1 cell CPT: DT40-hTDP1 cell growth loss with CPT | chicken DT40 Tdp1-/-;hTDP1 cells + 20 nM CPT, ATP luminescence, 48 h | Potency, µM (doses to about 46.2 µM), actives largely listed as inhibitors | actives 12% (n = 420,000); further: nearly all actives have a fitted effect of over 55% in size
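Chicken DT40 Tdp1-/- cells complemented with human TDP1, 400 cells/well, exposed to compounds plus 20 nM camptothecin for at least 48 h at 37 C; viability read as ATP content by CellTiter-Glo luminescence.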
miR-21 reporter: miR-21 reporter, rising signal; Potency, µM (top dose mostly 38.3 µM); 340,000 tested, under 10 active; HeLa miR-21 FLuc reporter, luciferase, 48 h; active = well fitted rising curve with a large enough effect; inconclusive = small, poorly fitted or top-dose-only effect; inactive = no such curve, though single readings can be large or run the other way;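 note: miR-21 action dims this reporter so a rising signal means less miR-21 action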
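HeLa cells stably expressing CMV-driven firefly luciferase with a downstream miR-21 binding sequence, endogenously expressing miR-21, were treated with titrations (up to about 40uM final) for 48 hours at 37 degree Celsius. Luciferase luminescence was read after lysis.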
DT40 TDP1 no CPT: qHTS for Inhibitors of human tyrosyl-DNA phosphodiesterase 1 (TDP1): qHTS in cells in absence of CPT. actives 15% (n = 420,000). DT40 Tdp1-/- hTDP1 cells, no CPT, ATP luminescence, 48 h. Potency, µM (doses to about 46.2 µM), hits mostly inhibitors; further: nearly all actives have a fitted effect of over 55% in size
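No-CPT arm: Tdp1-/-;hTDP1 DT40 cells (400/well) plus compounds, incubated ≥48 hr at 37 °C. Readout CellTiter-Glo luminescence.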
TDP1 inh: TDP1 (human) enzyme inhibition. Q9NUW8. recombinant TDP1, AlphaScreen DNA substrate cleavage. Potency, µM (highest dose often 130 µM), hits mostly inhibitors. actives 0.28% (n = 350,000); further: nearly all actives have a fitted effect of over 40% in size
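Steps: enzyme plus compound, 15 min RT; add biotin/phosphotyrosine-FITC oligonucleotide (15 nM final), react 5 min; add donor/acceptor beads (10 ug/ml final), 10 min; read AlphaScreen. Tdp1 at 1 nM final.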
A number is an active result; – = inactive; ? = inconclusive; · = no result; [ ] = dose if it differs, or a comment. An excerpt weighted towards active compounds, which were near 16% of everything screened. Unless noted, the call rests on the fitted dose curve; in most records, active means well fitted curve in the direction sought with a large enough effect; inconclusive means small, poorly fitted or top-dose-only effect, or another doubt; inactive means no such curve, though single readings can be large; an effect the other way counts as inactive or inconclusive.

SMILES	uPA surface inh	TDP1 cell CPT	miR-21 reporter	DT40 TDP1 no CPT	TDP1 inh
CCOC(=O)C(C)(C)N(Cc1ccccc1C)S(=O)(=O)c1ccc(Cl)c([N+](=O)[O-])c1	–	?	–	11.6µM	–
CCCC(=O)Nc1cc(S(=O)(=O)N(CC)CC)ccc1Cl	–	–	–	?	–
CCCN(CCC)S(=O)(=O)c1ccc(N2CCCC2=O)c([N+](=O)[O-])c1	–	?	–	–	–
Cc1ccccc1CN(CC(=O)Nc1cccc([N+](=O)[O-])c1)S(=O)(=O)c1ccc(Cl)cc1	–	?	?	?	–
CCCN(CCC)S(=O)(=O)c1ccc(Cl)c([N+](=O)[O-])c1	–	?	?	14.6µM	–
CCCCN(CCCC)S(=O)(=O)c1ccc(N2CCCC2=O)c([N+](=O)[O-])c1	–	?	·	20.6µM	·
COc1ccc(C(=O)Nc2cc3c(cc2C(=O)O)OCCCO3)c(OC)c1	–	–	–	–	–
COCC(=O)N1CCC2(CC1)CN(c1ccccn1)C2	·	–	·	?	·
COC(=O)c1ccccc1NC(=O)CCn1c(=O)c2cccn2c2cccnc21	·	–	–	?	–
CCOC(=O)Nc1c(C)n(C)n(-c2ccccc2)c1=O	·	–	–	–	–
Cc1c(N/N=C(\C#N)C(=O)c2ccccc2)c(=O)n(-c2ccccc2)n1C	–	2.91µM	–	3.26µM	–
Cc1ccccc1C(=O)/C(C#N)=N/Nc1c(C)n(C)n(-c2ccccc2)c1=O	–	4.61µM	–	3.66µM	–
CCOC(=O)/C(C#N)=N/Nc1ccccc1C#N	–	8.2µM	–	20.6µM	·
Cc1c(NC(=O)Nc2ccc(C#N)cc2)c(=O)n(-c2ccccc2)n1C	–	–	–	–	–[12.3 µM]
Cc1c(NC=C(C#N)C#N)c(=O)n(-c2ccccc2)n1C	·	–	–	–	–
CCOC(=O)/C(C#N)=N/Nc1c(C)n(C)n(-c2ccccc2)c1=O	–	16.4µM	–	16.4µM	–
CCn1c2c(c(=O)n3ncc(C(=O)N4CCN(c5ccc(Cl)cc5)CC4)c13)CN(Cc1ccc(OC)cc1)CC2	·	2.31µM	?	1.64µM	–
CCn1c2c(c(=O)n3ncc(C(=O)Nc4ccc(F)c(Cl)c4)c13)CN(Cc1ccc(OC)cc1)CC2	·	?	–	?	–
COc1ccc(CN2CCc3c(c(=O)n4ncc(C(=O)N5CCN(c6ccccc6F)CC5)c4n3C)C2)cc1	·	18.4µM	–	8.2µM	–
CCCCNC(=O)N(O)C1N(/N=C/c2ccccc2F)C(=S)SC1(C)C (stereo not drawn)	–	–	–	?	·
O=C(CCCN1C(=O)[C@H]2CC=CC[C@H]2C1=O)NCc1nc(-c2ccc(Cl)cc2)no1	–	–	–	–	–
CCc1ccc(S(=O)(=O)c2nnn3c2nc(NC(C)C)c2sccc23)cc1	·	20.6µM	–	?	–
CCc1ccc(S(=O)(=O)c2nnn3c2nc(Nc2cccc(C)c2C)c2sccc23)cc1	·	23.1µM	–	20.6µM	–
CCc1ccc(S(=O)(=O)c2nnn3c2nc(Nc2cc(OC)ccc2OC)c2sccc23)cc1	·	–	–	–	–
CC(C)Oc1ccc(CNC(=O)Cn2ccc3cc(S(=O)(=O)N4CCCC4)ccc32)cc1	–	–	–	–	–
SMILES	uPA surface inh	TDP1 cell CPT	miR-21 reporter	DT40 TDP1 no CPT	TDP1 inh
COc1ccccc1-c1ccc(SCc2ccccc2)nn1	–	?	–	20.6µM	–
COc1ccccc1-c1ccc(SCC(=O)NCCc2ccccc2)nn1	–	?	–	23.1µM	–
COc1cc(C)ccc1OCCSc1nc2ccc(NC(=O)c3cccs3)cc2s1	·	?	–	16.4µM	–
Cc1ccc(OCC(=O)Nc2ccc3nc(SCCOc4ccccc4)sc3c2)cc1	·	?	–	10.3µM	–
O=C(Nc1ccc2nc(SCCOc3ccccc3)sc2c1)c1ccccc1F	·	?	–	?	–
COc1cc(C)ccc1OCCSc1nc2ccc(NC(=O)c3ccco3)cc2s1	·	23.1µM	–	10.3µM	–
O=C(Nc1ccc2nc(SCCOc3ccccc3)sc2c1)c1cccs1	·	?	–	20.6µM	–
C/C(=N\NC(=O)c1ccc(NS(=O)(=O)c2cccs2)cc1)c1ccccn1	–	?	–	?	–
CC(=O)Nc1ccc2nc(SCCOc3ccccc3Cl)sc2c1	·	?	–	23.1µM	–
Nc1nc(CSC(=S)N2CCN(c3ccccc3)CC2)nc(Nc2ccccc2)n1	–	23.1µM	–	?	–
Cc1ccc(Nc2nc(N)nc(CSC(=S)N3CCOCC3)n2)c(C)c1	–	?	–	25.9µM	–
CC(=O)N1CC(c2ccccc2)C(c2ccc(Cl)cc2)=N1 (stereo not drawn)	–	?	–	?	–
CC(C)NC(=O)N1CC(c2ccccc2)C(c2ccc(Cl)cc2)=N1 (stereo not drawn)	–	11.6µM	–	18.4µM	·
Cc1ccccc1C(=O)Nc1c(C)nc(Nc2ccccc2)nc1Nc1ccccc1	·	?	?	?	–
CCOC(=O)c1cnc(Nc2ccc(OCC)cc2)nc1C	–	–	–	–	–
Cc1ccc(Nc2nc(C)c(NC(=O)c3ccc(C)cc3)c(Nc3ccc(C)cc3)n2)cc1	·	6.51µM	?	4.61µM	–
CCOc1ccc(Nc2nc(C)c(NC(=O)c3ccc(C)cc3)c(Nc3ccc(OCC)cc3)n2)cc1	·	1.3µM	–	2.59µM	–
Cc1ccc(NC(=O)CN(c2ccccc2)S(=O)(=O)N(C)C)cc1Cl	·	·	–	·	–
c1ccc(-n2nnnc2-c2cccc3ccccc23)cc1	?	3.66µM	·	4.61µM	·
Clc1ccc2[nH]cc(-c3nnnn3-c3ccccc3)c2c1	–	20.6µM	–	?	–
Cc1ccc(Cl)cc1NC(=O)c1oc2c(c1C)-c1[nH]ncc1CC2	·	?	?	?	–
Cc1cc(C)c(NC(=O)c2oc3c(c2C)-c2[nH]ncc2CC3)c(C)c1	·	16.4µM	–	20.6µM	–
CCOc1ccccc1CNC(=O)c1oc2c(c1C)-c1[nH]ncc1CC2	·	16.4µM	?	16.4µM	–
O=C(NC1CCCC1)c1cc(-c2ccc(F)cc2)on1	–	–	–	?	?
O=C(Nc1ccc(OCc2cc(=O)n3c4c(sc3n2)CCCC4)cc1)c1cccc(F)c1	·	?	–	?	–
O=C(NC1CCCc2ccccc21)C1CCN(C(=O)c2sccc2-n2cccc2)CC1 (stereo not drawn)	?	14.6µM	–	?	–
O=C(NCCc1ccccc1)C1CCN(C(=O)c2sccc2-n2cccc2)CC1	–	–	–	?	–
COc1ccc(C(=O)C23CC4CC(C2)CC(C(=O)c2ccc(OC)cc2)(C4)C3)cc1	–	?	–	16.4µM	–
C=CCn1nc(-c2ccccc2)cc1C(=O)OCC	–	–	·	–	·
CC(C)(C)NC(=O)C[C@H]1C[C@H](C(=O)N2CCCCC2)[C@@]2(C)c3[nH]c4cc(-c5ccco5)ccc4c3CCN2C1=O	–	?	·	25.9µM	–

Source: PubChem
